Target: URAT1 (SLC22A12) (Homo sapiens (Human), UniProt Q96S37)
Test: URAT1 (SLC22A12) cellular uptake assay, 3H-orotate transport in stably transfected URAT-1/CHO cells
Conditions: for URAT1 inhibition compared with lesinurad: comparison in words; for URAT1 inhibition (in words): bifunctional compounds

Protein sequences, listed by entry. Tags and fused reporters are not part of them. Lines headed by an entry give the natural chain unless they say otherwise; changes in a name come on top.
UniProt Q96S37: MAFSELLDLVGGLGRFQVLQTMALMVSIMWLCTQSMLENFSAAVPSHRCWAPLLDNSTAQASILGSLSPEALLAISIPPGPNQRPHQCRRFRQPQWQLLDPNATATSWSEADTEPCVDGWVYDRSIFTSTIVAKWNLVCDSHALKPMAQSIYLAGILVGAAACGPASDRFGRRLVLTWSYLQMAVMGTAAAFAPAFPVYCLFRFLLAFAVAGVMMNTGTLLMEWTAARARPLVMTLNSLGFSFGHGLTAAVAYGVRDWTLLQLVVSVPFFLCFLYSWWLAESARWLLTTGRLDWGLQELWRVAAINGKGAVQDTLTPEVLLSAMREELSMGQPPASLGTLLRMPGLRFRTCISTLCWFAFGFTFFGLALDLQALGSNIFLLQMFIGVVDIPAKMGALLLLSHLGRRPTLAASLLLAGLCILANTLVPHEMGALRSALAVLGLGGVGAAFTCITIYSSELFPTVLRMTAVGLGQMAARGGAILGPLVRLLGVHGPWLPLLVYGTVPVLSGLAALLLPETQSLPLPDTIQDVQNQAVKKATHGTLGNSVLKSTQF

With `O=C(Nc1ccc(-c2nn[nH]c2-c2ccccc2)cc1)c1c(O)[nH]c(=O)[nH]c1=O` [Formula (Ic), 6-hydroxy-2,4-dioxo-N-(4-(4-phenyl-1H-1,2,3-triazol-5-yl)phenyl)-1,2,3,4-tetrahydropyrimidine-5-carboxamide] the “URAT1 inhibition compared with lesinurad” value was “more potent inhibitors of URAT1 than lesinurad”.

In the case of `O=C(Nc1ccc(-c2c[nH]nn2)c(C(F)(F)F)c1)c1c(O)[nH]c(=O)[nH]c1=O` [Formula (Ig), N-(4-(1H-1,2,3-triazol-5-yl)-3-(trifluoromethyl)phenyl)-6-hydroxy-2,4-dioxo-1,2,3,4-tetrahydropyrimidine-5-carboxamide], the “URAT1 inhibition (in words)” value is reported as “potent inhibitors of URAT1” and the “URAT1 inhibition compared with lesinurad” value is reported as “more potent inhibitors of URAT1 than lesinurad”.

`O=C(Nc1ccc(-c2c[nH]nn2)cc1C(F)(F)F)c1c(O)[nH]c(=O)[nH]c1=O` [Formula (Ih), N-(4-(1H-1,2,3-triazol-5-yl)-2-(trifluoromethyl)phenyl)-6-hydroxy-2,4-dioxo-1,2,3,4-tetrahydropyrimidine-5-carboxamide] was tested, and the “URAT1 inhibition (in words)” value was “potent inhibitors of URAT1” and the “URAT1 inhibition compared with lesinurad” value was “more potent inhibitors of URAT1 than lesinurad”.

In the case of `O=C(Nc1ccc(-c2cc(O)n[nH]2)cc1)c1c(O)[nH]c(=O)[nH]c1=O` [Formula (Ii), 6-hydroxy-N-(4-(3-hydroxy-1H-pyrazol-5-yl)phenyl)-2,4-dioxo-1,2,3,4-tetrahydropyrimidine-5-carboxamide], the “URAT1 inhibition (in words)” value is reported as “potent inhibitors of URAT1”.

Source: patent publication US11161835B2, “Compounds and their use for reducing uric acid levels” (Acquist LLC, priority 2016, dated 2021)
